Assay results: patent US12583836B2 (Anaxis Pharma Pty Ltd, priority 2020, dated 2026)

Protein sequences, listed by entry. Tags and fused reporters are not part of them. Lines headed by an entry give the natural chain unless they say otherwise; changes in a name come on top.
UniProt Q9Y572: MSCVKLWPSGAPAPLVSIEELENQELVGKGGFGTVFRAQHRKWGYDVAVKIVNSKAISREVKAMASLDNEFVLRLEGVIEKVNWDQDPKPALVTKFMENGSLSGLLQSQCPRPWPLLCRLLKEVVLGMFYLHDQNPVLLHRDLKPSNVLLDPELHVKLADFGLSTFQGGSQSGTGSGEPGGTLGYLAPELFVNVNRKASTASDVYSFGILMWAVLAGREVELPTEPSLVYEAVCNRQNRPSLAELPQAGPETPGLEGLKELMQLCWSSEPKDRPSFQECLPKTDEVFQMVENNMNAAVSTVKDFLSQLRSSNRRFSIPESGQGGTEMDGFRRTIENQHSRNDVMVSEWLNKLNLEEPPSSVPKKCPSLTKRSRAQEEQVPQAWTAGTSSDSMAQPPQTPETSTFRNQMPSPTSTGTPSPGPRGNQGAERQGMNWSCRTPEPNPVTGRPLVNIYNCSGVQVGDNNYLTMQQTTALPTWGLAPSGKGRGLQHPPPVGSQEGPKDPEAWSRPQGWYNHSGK

Molecular target: T1, RIP3 (Homo sapiens, UniProt Q9Y572)
T1 construct: purchased DiscoverX (KINOMEscan service); host or cells: E. coli BL21-derived (T7 phage) or HEK293
Assay: KINOMEscan binding assay, RIP3
Settings: equilibrium dissociation constant, class symbols

Compound	Kd
NC(=O)c1c(-c2ccc(NS(=O)(=O)Cc3ccc(F)cc3)cc2)n[nH]c1Nc1cccc(C(F)(F)F)n1 [Compound 55, 3-(4-(((4-fluorophenyl)methyl)sulfonamido)phenyl)-5-((6-(trifluoromethyl)pyridin-2-yl)amino)-1H-pyrazole-4-carboxamide]	1 to 30 µM
CCS(=O)(=O)Nc1ccc(-c2n[nH]c(Nc3cnc(C)cn3)c2C(N)=O)cc1OCc1ccc(F)c(Cl)c1 [Compound 150, 3-(3-((3-chloro-4-fluorobenzyl)oxy)-4-(ethylsulfonamido)phenyl)-5-((5-methylpyrazin-2-yl)amino)-1H-pyrazole-4-carboxamide]	1 to 30 µM
COC[C@H](Cc1cc(-c2n[nH]c(Nc3cnccn3)c2C(N)=O)ccc1NS(=O)(=O)C(F)F)c1ccc(F)cc1 (single isomer, unassigned) [Compound 272]	> 30 µM
Cc1cnc(Nc2[nH]nc(-c3ccc(NS(=O)(=O)C(F)F)c(O[C@@H](C)c4ccc(F)cc4)c3)c2C(N)=O)cn1 [Compound 245, 3-[4-(difluoromethanesulfonamido)-3-[(1S)-1-(4-fluorophenyl)ethoxy]phenyl]-5-[(5-methylpyrazin-2-yl)amino]-1H-pyrazole-4-carboxamide]	> 30 µM
CCS(=O)(=O)Nc1ccc(-c2n[nH]c(Nc3cnc(C(C)C)cn3)c2C(N)=O)cc1OCc1ccc(F)cc1 [Compound 34, 3-(4-(ethylsulfonamido)-3-((4-fluorobenzyl)oxy)phenyl) 5-((5-isopropylpyrazin-2-yl)amino)-1H-pyrazole-4-carboxamide]	> 30 µM
NC(=O)c1c(-c2ccc(NS(=O)(=O)CCC(F)F)cc2)n[nH]c1Nc1cnccn1 [Compound 23, 3-(4-((3,3-difluoropropyl)sulfonamido)phenyl)-5-(pyrazin-2-ylamino)-1H-pyrazole-4-carboxamide]	> 30 µM
CCS(=O)(=O)Nc1ccc(-c2n[nH]c(Nc3cnccn3)c2C(N)=O)cc1 [Compound 108, 3-(4-(ethylsulfonamido)phenyl)-5-(pyrazin-2-ylamino)-1H-pyrazole-4-carboxamide]	> 30 µM
COCCOc1cc(Nc2[nH]nc(-c3ccc(NS(=O)(=O)N(C)C)cc3)c2C(N)=O)ccn1 [Compound 221, 3-(4-((N,N-dimethylsulfamoyl)amino)phenyl)-5-((2-(2-methoxyethoxy)pyridin-4-yl)amino)-1H-pyrazole-4-carboxamide]	> 30 µM
NC(=O)c1c(-c2ccc(NS(=O)(=O)CC(F)(F)F)c(Oc3cccc(F)c3)c2)n[nH]c1Nc1cnccn1 [Compound 167, 3-(3-(3-fluorophenoxy)-4-((2,2,2-trifluoroethyl)sulfonamido)phenyl)-5-(pyrazin-2-ylamino)-1H-pyrazole-4-carboxamide]	> 30 µM
CCS(=O)(=O)Nc1ccc(-c2n[nH]c(Nc3cnccn3)c2C(N)=O)cc1OCCc1cccc(F)c1 [Compound 219, 3-(4-(ethylsulfonamido)-3-(3-fluorophenethoxy)phenyl)-5-(pyrazin-2-ylamino)-1H-pyrazole-4-carboxamide]	> 30 µM
CCS(=O)(=O)Nc1ccc(-c2n[nH]c(Nc3ccccn3)c2C(N)=O)cc1OCc1cccnc1 [Compound 31, 3-(4-(ethylsulfonamido)-3-(pyridin-3-ylmethoxy)phenyl)-5-(pyridin-2-ylamino)-1H-pyrazole-4-carboxamide]	> 30 µM
COc1cnc(Nc2[nH]nc(-c3ccc(NS(=O)(=O)CC(F)(F)F)c(OCc4ccc(F)cc4)c3)c2C(N)=O)cn1 [Compound 143, 3-(3-((4-fluorobenzyl)oxy)-4-((2,2,2-trifluoroethyl)sulfonamido)phenyl)-5-((5-methoxypyrazin-2-yl)amino)-1H-pyrazole-4-carboxamide]	> 30 µM
Cc1cnc(Nc2[nH]nc(-c3ccc(NS(=O)(=O)CC(F)(F)F)c(O[C@@H](C)c4ccc(F)cc4)c3)c2C(N)=O)cn1 [Compound 264, 3-{3-[(1S)-1-(4-fluorophenyl)ethoxy]-4-(2,2,2-trifluoroethanesulfonamido)phenyl}-5-[(5-methylpyrazin-2-yl)amino]-1H-pyrazole-4-carboxamide]	> 30 µM
CCS(=O)(=O)Nc1ccc(-c2n[nH]c(Nc3cccc(C(F)(F)F)n3)c2C(N)=O)cc1OCc1ccccc1 [Compound 46, 3-(3-(benzyloxy)-4-(ethylsulfonamido)phenyl)-5-((6-(trifluoromethyl)pyridin-2-yl)amino)-1H-pyrazole-4-carboxamide]	> 30 µM
NC(=O)c1c(-c2ccc(NS(=O)(=O)CC(F)(F)F)cc2OCc2ccc(F)cc2)n[nH]c1Nc1cnccn1 [Compound 139, 3-(2-((4-fluorobenzyl)oxy)-4-((2,2,2-trifluoroethyl)sulfonamido)phenyl)-5-(pyrazin-2-ylamino)-1H-pyrazole-4-carboxamide]	> 30 µM
Cc1cnc(Nc2[nH]nc(-c3ccc(NS(=O)(=O)CCC(F)(F)F)c(OCc4ccc(F)cc4)c3)c2C(N)=O)cn1 [Compound 183, 3-(3-((4-fluorobenzyl)oxy)-4-((3,3,3-trifluoropropyl)sulfonamido)phenyl)-5-((5-methylpyrazin-2-yl)amino)-1H-pyrazole-4-carboxamide]	> 30 µM
CCS(=O)(=O)Nc1ccc(-c2n[nH]c(Nc3ccnc(C(F)(F)F)c3)c2C(N)=O)cc1 [Compound 104, 3-(4-(ethylsulfonamido)phenyl)-5-((2-(trifluoromethyl)pyridin-4-yl)amino)-1H-pyrazole-4-carboxamide]	> 30 µM
NC(=O)c1c(-c2ccc(NS(=O)(=O)CC(F)(F)F)c(OCc3ccc(Cl)cc3)c2)n[nH]c1Nc1cnc(C(F)(F)F)cn1 [Compound 234, 3-{3-[(4-chlorophenyl)methoxy]-4-(2,2,2-trifluoroethanesulfonamido)phenyl}-5-{[5-(trifluoromethyl)pyrazin-2-yl]amino}-1H-pyrazole-4-carboxamide]	> 30 µM
NC(=O)c1c(-c2ccc(NS(=O)(=O)Cc3cccc(Cl)c3)cc2)n[nH]c1Nc1ccccn1 [Compound 129, 3-(4-(((3-chlorophenyl)methyl)sulfonamido)phenyl)-5-(pyridin-2-ylamino)-1H-pyrazole-4-carboxamide]	1 to 30 µM
CCS(=O)(=O)Nc1ccc(-c2n[nH]c(Nc3cnccn3)c2C(N)=O)cc1OCc1ccc(F)c(F)c1 [Compound 1, 3-(3-((3,4-difluorobenzyl)oxy)-4-(ethylsulfonamido)phenyl)-5-(pyrazin-2-ylamino)-1H-pyrazole-4-carboxamide]	> 30 µM
CCS(=O)(=O)Nc1ccc(-c2n[nH]c(Nc3cccnc3)c2C(N)=O)cc1OCc1ccc(F)cc1 [Compound 6, 3-(4-(ethylsulfonamido)-3-((4-fluorobenzyl)oxy)phenyl) 5-(pyridin-3-ylamino)-1H pyrazole-4-carboxamide]	> 30 µM
CCS(=O)(=O)Nc1ccc(-c2n[nH]c(Nc3cncc(OC)n3)c2C(N)=O)cc1OCc1ccc(F)cc1 [Compound 15, 3-(4-(ethylsulfonamido)-3-((4-fluorobenzyl)oxy)phenyl) 5-((6-methoxypyrazin-2-yl)amino)-1H-pyrazole-4 carboxamide]	> 30 µM
CCc1cc(Nc2[nH]nc(-c3ccc(NS(=O)(=O)C(F)F)c(O[C@@H](C)c4ccc(F)cc4)c3)c2C(N)=O)no1 [Compound 274, (S)-3-(4-((difluoromethyl)sulfonamido)-3-(1-(4-fluorophenyl)ethoxy)phenyl)-5-((5-ethylisoxazol-3-yl)amino)-1H-pyrazole-4-carboxamide]	> 30 µM
